Test results taken from patent publication US20220401514A1, “ANTIMICROBIAL, BACTERIOPHAGE-DERIVED POLYPEPTIDES AND THEIR USE AGAINST GRAM-NEGATIVE AND ACID-FAST BACTERIA” (CONTRAFECT CORPORATION, priority 2019, published 2022).
In brackets after ≈: the same amount, converted by molar mass.

Assays:
[1] = tested on: P. aeruginosa strain CFS-1292; assay: Checkerboard assay (FICI) with antibiotics, P. aeruginosa; details: P. aeruginosa CFS-1292, CAA + […] human serum
[2] = tested on: Acinetobacter baumannii strain 30; assay: Checkerboard assay (FICI) with antibiotics, A. baumannii
[3] = tested on: Klebsiella pneumoniae strain 1139; assay: Checkerboard assay (FICI) with antibiotics, K. pneumoniae; details: in combination with Unp2-M1
[4] = tested on: P. aeruginosa strain CFS-1292; assay: microbe, parasite or virus in culture; type: cell-based; details: Pseudomonas aeruginosa, CFS1292
[5] = tested on: P. aeruginosa (CFS 1292); assay: microbe, parasite or virus in culture; type: cell-based; details: Pseudomonas aeruginosa, read-out: MIC Untreated control

SMILES	Antibiotic MIC in checkerboard ([1]; combined with Chp4-M1)	Antibiotic MIC ([2]; in combination with Chp2)	Antibiotic MIC ([2]; in combination with Chp2-M1)	Antibiotic MIC ([2]; in combination with Chp4-M1)	Antibiotic MIC ([2]; in combination with Chp6-M1)	Antibiotic MIC ([2]; in combination with Chp10-M1)	Antibiotic MIC ([2]; in combination with Unp2-M1)	Antibiotic MIC [3]	Antibiotic MIC in checkerboard ([1]; combined with Chp2-M1)	Antibiotic MIC in checkerboard ([1]; combined with Chp2)	Antibiotic MIC in checkerboard ([1]; combined with Chp6-M1)	Antibiotic MIC in checkerboard ([1]; combined with Chp10-M1)	Antibiotic MIC in checkerboard ([1]; combined with Unp2-M1)	MIC [4]	MIC [5]
NCC[C@H](O)C(=O)N[C@@H]1C[C@H](N)[C@@H](O[C@H]2O[C@H](CN)[C@@H](O)[C@H](O)[C@H]2O)[C@H](O)[C@H]1O[C@H]1O[C@H](CO)[C@@H](O)[C@H](N)[C@H]1O [Amikacin]	0.125 µg/mL	0.0625 µg/mL	0.125 µg/mL	0.0625 µg/mL	0.125 µg/mL	0.0625 µg/mL	0.125 µg/mL	–	–	–	–	–	–	–	–
C[C@@H](O)[C@H]1C(=O)N2C(C(=O)O)=C(S[C@@H]3CN[C@H](C(=O)N(C)C)C3)[C@H](C)[C@H]12 [meropenem, reference compound]	–	0.0625 µg/mL	0.0625 µg/mL	0.125 µg/mL	0.125 µg/mL	0.0625 µg/mL	0.125 µg/mL	0.03125 µg/mL	–	–	–	–	–	–	–
NC[C@H]1O[C@H](O[C@H]2[C@H](O)[C@@H](O[C@H]3O[C@H](CO)[C@@H](O)[C@H](N)[C@H]3O)[C@H](N)C[C@@H]2N)[C@H](N)C[C@@H]1O [tobramycin, reference compound]	0.125 µg/mL	–	–	0.03125 µg/mL	–	–	–	–	0.125 µg/mL	0.125 µg/mL	0.125 µg/mL	0.0625 µg/mL	0.125 µg/mL	0.0625 µg/mL (≈ 0.134 µM)	0.125 µg/mL (≈ 0.267 µM)
